Consider one molecule from publication PMC3688787.

The assay deals with T1, Hyp402-ODD target peptide of HIF-1α.
T1 chain: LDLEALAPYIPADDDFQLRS
Description: TAMRA fluorescence binding assay (fluorescence at 580 nm). The settings on record: chain shown with the change, pVHL protein concentration 500 nM, value read at the highest peptide concentration point (x est. 5e5 on the printed axis, plateau), read off a plot.

B1: von Hippel-Lindau tumor suppressor protein (pVHL), wild type, 19 kDa form, P40337 Y98H (protein)
chain: MEAGRPRPVLRSVNSREPSQVIFCNRSPRVVLPVWLNFDGEPQPHPTLPPGTGRRIHSYRGHLWLFRDAGTHDGLLVNQTELFVPSLNVDGQPIFANITLPVYTLKERCLQVVRSLVKPENYRRLDIVRSLYEDLEDHPNVQKDLERLTQERIAHQRMGD
B1: the response (FU (arbitrary units)) was determined as 0.06 (in the presence of Arginine, parent: est. 2.4) and 0.02 (no Arginine, parent: est. 2.2).
